{"source": "patent US20240024233A1", "about": "“Oral Hydrogel Compositions and Uses” (Colgate-Palmolive Company, priority 2020, published 2024)", "test": "Sustained release of entrapped agent (FD&C Blue 1 dye) from gel", "assay_type": "physicochemical", "conditions": "entrained in the gel at 2% to 10% w/w"}
{"substance": "zinc salicylate", "values": [{"measurement": "release from the gel", "result": "steady release over a six-hour period"}]}
